Data reported in article PMC5807507, “Crystal structures of a bacterial dipeptidyl peptidase IV reveal a novel substrate recognition mechanism distinct from that of mammalian orthologues” (Scientific Reports, 2018).

Chains of the proteins cited; added tags and fusions are not shown. Residues count along the entry.
UniProt P27487, 39-766: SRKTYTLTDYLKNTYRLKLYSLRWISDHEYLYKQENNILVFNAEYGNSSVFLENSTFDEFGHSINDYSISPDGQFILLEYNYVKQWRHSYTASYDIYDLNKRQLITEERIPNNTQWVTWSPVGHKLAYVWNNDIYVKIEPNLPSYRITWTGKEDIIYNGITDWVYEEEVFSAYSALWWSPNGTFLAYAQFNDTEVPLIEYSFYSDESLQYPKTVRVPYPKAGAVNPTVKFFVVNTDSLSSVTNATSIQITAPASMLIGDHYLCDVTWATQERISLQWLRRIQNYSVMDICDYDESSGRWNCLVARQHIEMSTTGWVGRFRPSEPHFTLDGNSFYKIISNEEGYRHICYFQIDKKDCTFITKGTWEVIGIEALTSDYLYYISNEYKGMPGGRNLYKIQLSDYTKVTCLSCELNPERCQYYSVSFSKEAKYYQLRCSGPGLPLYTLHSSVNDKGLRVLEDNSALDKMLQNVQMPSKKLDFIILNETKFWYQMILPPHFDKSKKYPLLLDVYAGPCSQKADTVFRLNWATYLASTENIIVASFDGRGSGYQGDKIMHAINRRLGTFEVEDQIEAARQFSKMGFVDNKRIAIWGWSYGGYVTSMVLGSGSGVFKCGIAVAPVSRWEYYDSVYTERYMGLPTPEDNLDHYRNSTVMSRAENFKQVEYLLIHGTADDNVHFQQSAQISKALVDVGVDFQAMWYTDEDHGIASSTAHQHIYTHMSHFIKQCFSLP

Columns and labels:
Human DPP IV [1] = target: T1, Human DPP IV (Homo sapiens, UniProt P27487); test: biochemical
T1 construct: gene DPP4

Human DPP IV [2] = target: T1, Human DPP IV; test: Gly-Pro-MCA fluorescence hydrolysis inhibition; Ki by Cheng-Prusoff

IC50 (Human DPP IV [1]): 38.6 ± 2.2 nM
Ki (Human DPP IV [2]): 10.5 ± 0.6 nM
SMILES: Cc1cc2ncc(C(=O)NCC(C)(C)NCC(=O)N3CCC[C@H]3C#N)cn2n1 [Anagliptin]
